The values below come from patent US9242970B2 (ACTELION PHARMACEUTICALS LTD., priority 2010, dated 2016).

Amino acid sequences for entries named in this document (tags omitted).
UniProt O43613, whole entry: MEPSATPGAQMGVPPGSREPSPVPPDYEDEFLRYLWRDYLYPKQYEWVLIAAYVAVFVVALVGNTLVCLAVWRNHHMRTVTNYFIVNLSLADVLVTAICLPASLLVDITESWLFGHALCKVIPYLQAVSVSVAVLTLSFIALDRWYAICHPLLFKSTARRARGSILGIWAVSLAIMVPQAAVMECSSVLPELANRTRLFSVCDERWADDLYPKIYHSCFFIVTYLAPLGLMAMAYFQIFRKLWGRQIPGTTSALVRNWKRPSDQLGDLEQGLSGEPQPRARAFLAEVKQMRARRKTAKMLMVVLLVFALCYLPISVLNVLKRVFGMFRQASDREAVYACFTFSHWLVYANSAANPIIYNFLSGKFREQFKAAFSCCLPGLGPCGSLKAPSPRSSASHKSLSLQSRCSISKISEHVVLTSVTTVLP
UniProt O43614, whole entry: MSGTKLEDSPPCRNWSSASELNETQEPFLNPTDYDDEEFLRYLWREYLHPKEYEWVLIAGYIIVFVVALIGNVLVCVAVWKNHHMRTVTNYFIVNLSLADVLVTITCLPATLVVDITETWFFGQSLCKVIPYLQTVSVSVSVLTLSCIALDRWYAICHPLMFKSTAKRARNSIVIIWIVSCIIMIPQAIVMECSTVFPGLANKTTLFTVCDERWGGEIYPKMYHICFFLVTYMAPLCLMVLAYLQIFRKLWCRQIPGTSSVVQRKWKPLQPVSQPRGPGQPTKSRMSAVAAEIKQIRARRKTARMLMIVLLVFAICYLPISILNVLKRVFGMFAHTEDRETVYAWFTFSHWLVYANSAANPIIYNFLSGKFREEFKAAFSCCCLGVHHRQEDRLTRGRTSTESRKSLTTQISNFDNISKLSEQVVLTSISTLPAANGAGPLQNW

The target in one test is human orexin-1 receptor (Homo sapiens (Human), UniProt O43613). The test can be described thus: In vitro assay: intracellular calcium measurements (FLIPR), antagonistic activity. It counts as cell-based. The settings on record: CHO cells, 3 nM orexin-A, compound incubation 120 min; marked values are geometric means of n = 2-6; read-out: IC50 OX1. How it is done:
(§1) In Vitro Assay: Intracellular Calcium Measurements:
(§2) Chinese hamster ovary (CHO) cells expressing the human orexin-1 receptor and the human orexin-2 receptor, respectively, are grown in culture medium (Ham F-12 with L-Glutamine) containing 300 µg/ml G418, 100 U/ml penicillin, 100 µg/ml streptomycin and 10% heat inactivated fetal calf serum (FCS). The cells are seeded at 20,000 cells/well into 384-well black clear bottom sterile plates (Greiner). The seeded plates are incubated overnight at 37° C. in 5% CO2.
(§3) Fluorescence is measured for each well at 1 second intervals, and the height of each fluorescence peak is compared to the height of the fluorescence peak induced by 3 nM orexin-A with vehicle in place of antagonist. […] Optimized conditions were achieved by adjustment of pipetting speed and cell splitting regime. The calculated IC50 values may fluctuate depending on the daily cellular assay performance. Fluctuations of this kind are known to those skilled in the art.
On the technique in general: A change in cytosolic calcium serves as a functional read-out for many receptors and channels.

For a further test, the target named is human orexin-2 receptor (Homo sapiens (Human), UniProt O43614). The test is described as above. The settings on record: CHO cells, 3 nM orexin-A, compound incubation 120 min; marked values are geometric means of n = 2-6; read-out: IC50 OX2. Type of test: cell-based. On the procedure: as §1, §2, §3

As to `CCOc1cccc(Cl)c1[C@@H]1C[C@H](Cl)C(=O)N1Cc1ccc(OC(F)(F)F)cc1` (racemic) [Example 437, rac-(3S*,5S*)-3-chloro-5-(2-chloro-6-ethoxyphenyl)-1-(4-(trifluoromethoxy)benzyl)pyrrolidin-2-one], the IC50 was determined as 782 nM on human orexin-1 receptor and 46 nM at human orexin-2 receptor. The corresponding values for `COc1cccc(F)c1[C@@H]1C[C@H](Cl)C(=O)N1Cc1cccc(OC(F)(F)F)c1` (racemic) [Example 460, rac-(3S*,5S*)-3-chloro-5-(2-fluoro-6-methoxyphenyl)-1-(3-(trifluoromethoxy)benzyl)pyrrolidin-2-one] are 798 nM and 22 nM. On to `CCOc1c(F)cccc1[C@@H]1C[C@@H](O)C(=O)N1Cc1ccc(OC(F)(F)F)cc1` (racemic) [Example 310, rac-(3R*,5S*)-5-(2-ethoxy-3-fluorophenyl)-3-hydroxy-1-(4-(trifluoromethoxy)benzyl)pyrrolidin-2-one], for which the IC50 on human orexin-1 receptor is 1200 nM. On the same count and under the same terms, under `CCOc1ccc(F)c(F)c1[C@@H]1C[C@@H](O)C(=O)N1Cc1ccc(OC(F)(F)F)cc1` (racemic) [Example 338, rac-(3R*,5S*)-5-(6-ethoxy-2,3-difluorophenyl)-3-hydroxy-1-(4-(trifluoromethoxy)benzyl)pyrrolidin-2-one] stands 2470 nM; under `COc1cc(F)ccc1[C@@H]1C[C@@H](Cl)C(=O)N1Cc1ccc(OC(F)(F)F)cc1` (racemic) [Example 323, rac-(3R*,5S*)-3-chloro-5-(4-fluoro-2-methoxyphenyl)-1-(4-(trifluoromethoxy)benzyl)pyrrolidin-2-one], 986 nM; under `COc1cc(F)ccc1[C@@H]1C[C@H](F)C(=O)N1Cc1ccc(OC(F)(F)F)cc1` (racemic) [Example 303, rac-(3S*,5S*)-3-fluoro-5-(4-fluoro-2-methoxyphenyl)-1-(4-(trifluoromethoxy)benzyl)pyrrolidin-2-one], 1380 nM. On to `COc1cc(F)ccc1[C@@H]1C[C@H](Cl)C(=O)N1Cc1ccc(OC(F)(F)F)cc1` (racemic) [Example 308, rac-(3S*,5S*)-3-chloro-5-(4-fluoro-2-methoxyphenyl)-1-(4-(trifluoromethoxy)benzyl)pyrrolidin-2-one], for which, on human orexin-1 receptor, the IC50 amounted to 567 nM. The same measure, in the same setting: under `CC(C)Oc1cccc(F)c1[C@@H]1C[C@@H](O)C(=O)N1Cc1ccc(OC(F)(F)F)cc1` (racemic) [Example 394, rac-(3R*,5S*)-5-(2-fluoro-6-isopropoxyphenyl)-3-hydroxy-1-(4-(trifluoromethoxy)benzyl)pyrrolidin-2-one] stands 2550 nM. As to `COc1cccc(F)c1[C@@H]1C[C@@H](O)C(=O)N1Cc1ccc2oc3ccccc3c2c1` (racemic) [Example 412, rac-(3R*,5S*)-1-(dibenzo[b,d]furan-2-ylmethyl)-5-(2-fluoro-6-methoxyphenyl)-3-hydroxypyrrolidin-2-one], the figures for the 50% inhibitory concentration (IC50) on human orexin-1 receptor and on human orexin-2 receptor were 288 nM and 4 nM, respectively.

Usually IC50 stands for the concentration needed to halve the response being measured.
